This note sets out measurements from PubChem BioAssay AID1906 (The Scripps Research Institute Molecular Screening Center, 2009).

As usually defined, the inhibition is the change of the read-out against control, counted positive when it falls.

The entries are a selection whose mix differs from that of the whole data set. Activity calls are given as the source filed them.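 The calls were made as follows: active = inhibition above the mean of all tested compounds plus 3 SD, set per screening campaign (cut at about 17% in these data); inactive = the rest.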

This experiment has as its system cathepsin L1 (Fasciola hepatica). The experiment in a line: Fasciola hepatica cathepsin L1 inhibitors, primary screen, counter-screen for PFM18AAP inhibitor project, biochemical, QFRET, fluorogenic peptide substrate (AID 1906).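 Also: 0% = plate median of test compound wells and 100% = 1 µM Z-Phe-Ala-diazomethylketone.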 The note with it: recombinant F. hepatica cathepsin L1, Z-Leu-Arg-MCA fluorescence; at 5.96 µM; active compounds read high.
As for `CC(=O)NC(SC(=S)N(C)C)C(Cl)(Cl)Cl` (stereo unspecified), the inhibition is inactive: -2.75%.

Take `O=[N+]([O-])c1ncn(CCn2cnc([N+](=O)[O-])n2)n1`: the inhibition is inactive: 2.56%.

Consider `O=[N+]([O-])c1ccc(O)c(/C=N/Nc2ccc([N+](=O)[O-])cc2[N+](=O)[O-])c1`, for which the inhibition was inactive: -3.21%.

As for `O=[As](O)(c1ccccc1)c1ccc(O)cc1`, the inhibition is inactive: 0.76%.

As for `Nc1ccc([As](=O)(O)c2ccc([N+](=O)[O-])cc2)cc1`, the inhibition is inactive: 2.81%.

`C(Cc1nn[nH]n1)Cc1nn[nH]n1`: the inhibition was inactive: -0.43%.

`O=C(OC1CN2CCC1CC2)c1cccc(Cl)c1` (stereo unspecified): the inhibition is inactive: -0.3%.

In the case of `CN(C)C1(CNC(=O)c2ccc(Cl)c(S(N)(=O)=O)c2)CCCCC1`, the inhibition is inactive: 0.07%.

As to `O=P(Nc1ccccn1)(c1ccc(Br)cc1)c1ccc(Br)cc1`, the inhibition is inactive: -3.69%.

On to `O=P(Nc1nc2ccccc2s1)(c1ccccc1)c1ccccc1`, for which the inhibition was inactive: 1.06%.

Consider `C[C@H]1OP(=O)(Oc2ccccc2)[C@H](O)[C@H](O)[C@H]1N=[N+]=[N-]` (stereo partly specified), for which the inhibition is inactive: 3.53%.

Consider `O=P(Nc1nccs1)(c1ccccc1)c1ccccc1`, for which the inhibition was inactive: -2.61%.

With `CC(C)C(=O)NC(Sc1ccccc1)C(Cl)(Cl)Cl` (stereo unspecified), the inhibition was inactive: 1.64%.

In the case of `c1nnnn1CCn1cnnn1`, the inhibition is inactive: -1.99%.

As to `CC(=O)c1ccc(N2CC2c2ccncc2)cc1` (stereo unspecified), the inhibition is inactive: -1.62%.

Regarding `C[C@@H]1C=CCP(=O)(Oc2ccccc2)O1` (stereo partly specified), the inhibition is inactive: -0.72%.

`C[C@H]1OP(=O)(Oc2ccccc2)C[C@@H]2O[C@@H]21` (stereo partly specified): the inhibition was inactive: -1.63%.

Turning to `CC(=O)Nc1ccc([As](=O)(O)O)c(O)c1`, the inhibition is inactive: 2.97%.

On to `CC(=O)Nc1ccc(Oc2c([N+](=O)[O-])cc([N+](=O)[O-])cc2[N+](=O)[O-])cc1`, for which the inhibition was inactive: 3.08%.

For the molecule `O=P1(Nc2nc3ccc(Cl)cc3s2)COc2ccccc2O1` (stereo unspecified), the inhibition is inactive: -5.2%.

Take `CCOc1ccc(C2=NCC(CBr)S2)cc1` (stereo unspecified): the inhibition is inactive: 2.67%.

Consider `CC(C)(C)C(=O)NC(Sc1ccccc1)C(Cl)(Cl)Cl` (stereo unspecified), for which the inhibition was inactive: 7.15%.

On to `COC(=O)c1cc2c(s1)N=C(c1ccccc1)N(C)P2(=O)N1CCOCC1` (stereo unspecified), for which the inhibition is inactive: -1%.

With `CC(=O)NC(SC(=S)N(CC(C)C)CC(C)C)C(Cl)(Cl)Cl` (stereo unspecified), the inhibition is inactive: 1.1%.

As for `Cc1ccc(OP(=O)(Nc2ccccn2)Oc2ccc(C)cc2)cc1`, the inhibition is inactive: 0.49%.

`O=C(OC1CN2CCC1CC2)c1ccccc1` (stereo unspecified): the inhibition is inactive: -5.21%.

On to `CCC(=O)N1C2C3N(C(=O)CC)C1C1N(C(=O)CC)C(C(N1C(=O)CC)N3C(=O)CC)N2C(=O)CC`, for which the inhibition was inactive: 1.29%.

Take `Cc1ccccc1OP(=O)(Nc1ccccn1)Oc1ccccc1C`: the inhibition is inactive: 4.62%.

In the case of `CN(C)C(=O)Oc1noc2ccccc12`, the inhibition was inactive: 9.9%.

In the case of `O=C(NC1CCS(=O)(=O)C1)NP(=S)(Oc1ccccc1)Oc1ccccc1` (stereo unspecified), the inhibition is inactive: -4.66%.

With `CCNC(=S)/N=C(\N)N[N+](=O)[O-]`, the inhibition was inactive: -2.43%.

Take `c1ccc(-c2nn[nH]n2)c(-c2nn[nH]n2)c1`: the inhibition was inactive: -2.54%.

As for `Cc1ccc(NP(=O)(Oc2cccc(C)c2)Oc2cccc(C)c2)nc1`, the inhibition was inactive: -2.37%.

As for `CCOC(=O)NC(Sc1ccccc1)C(Cl)(Cl)Cl` (stereo unspecified), the inhibition is inactive: -2.48%.

Regarding `O=[N+]([O-])c1cc([N+](=O)[O-])c(CCN2CCOCC2)c([N+](=O)[O-])c1`, the inhibition was inactive: -3.15%.

Regarding `CCN(N=Nc1nonc1N)c1nonc1N`, the inhibition is inactive: -0.46%.

In the case of `O=C(O)c1ccccc1[As](=O)(O)O`, the inhibition was inactive: 0.03%.

With `CC(=O)Nc1ccc([As](=O)(O)O)cc1`, the inhibition was inactive: 0.79%.

Regarding `O=P(Nc1nc2ccc(Cl)cc2s1)(c1ccccc1)c1ccccc1`, the inhibition was inactive: -2.65%.

`CCOP(=O)(Nc1ccccc1)OCC`: the inhibition is inactive: 5.45%.

`Cc1cc(SC(NC(=O)c2ccc(F)cc2)C(Cl)(Cl)Cl)ncn1` (stereo unspecified): the inhibition is inactive: 2.62%.

Take `CN(C(=O)Cc1ccc(Cl)c(Cl)c1)[C@H]1CCCC[C@@H]1N1CCCC1`: the inhibition is inactive: 4.53%.

For `Cc1ccc(NP(=O)(Oc2ccccc2F)Oc2ccccc2F)nc1`, the inhibition is inactive: -0.25%.

On to `CC(C)CC(=O)NC(Sc1ccc(Cl)cc1)C(Cl)(Cl)Cl` (stereo unspecified), for which the inhibition was inactive: -0.14%.

Regarding `Nc1cc(N)c2nonc2c1[N+](=O)[O-]`, the inhibition is inactive: 2.82%.

`Oc1ccccc1CNc1ccccn1`: the inhibition was inactive: -6.72%.

As for `Cc1c2non([O-])c-2c(C)[n+](=O)[n+]1[O-]`, the inhibition was inactive: -1.29%.

On to `O=C(NC(Sc1ccncn1)C(Cl)(Cl)Cl)c1ccccc1` (stereo unspecified), for which the inhibition is inactive: 5.08%.

With `NC(=O)c1cc([N+](=O)[O-])cc([N+](=O)[O-])c1N`, the inhibition is inactive: -2.66%.

As for `CN(C(=O)Cc1ccc(Cl)c(Cl)c1)[C@H]1CCCC[C@H]1N1CCCC1`, the inhibition was inactive: -1.56%.

`Cc1ccc(N/C(=N/P(=O)(N2CCOCC2)N2CCOCC2)N2CCOCC2)cc1`: the inhibition is inactive: 3.48%.

Turning to `COc1ccccc1OP(=O)(Nc1ccc(C)cn1)Oc1ccccc1OC`, the inhibition is inactive: 0.91%.

On to `Cc1ccc(OP(=O)(Nc2nccs2)Oc2ccc(C)cc2)cc1`, for which the inhibition was inactive: -4.15%.

Consider `Clc1ccc(Cl)c(NC2=NCC(CBr)S2)c1` (stereo unspecified), for which the inhibition is inactive: -2.03%.

Turning to `CN1CCCC(OC(=O)C(c2ccccc2)c2ccccc2)C1` (stereo unspecified), the inhibition is inactive: 1%.

Regarding `Nc1ccc([As](=O)(O)c2ccc(N)cc2)cc1`, the inhibition is inactive: -0.86%.

With `C[N+]1=C2C=CC=CC=C2SC12C([N+](=O)[O-])=CC([N+](=O)[O-])=C[C-]2[N+](=O)[O-]` (stereo unspecified), the inhibition is inactive: 3.63%.

Take `CCN(/C(=N/P(=O)(N1CCOCC1)N1CCOCC1)N1CCOCC1)c1ccc(OC)cc1`: the inhibition is inactive: -1.99%.

Turning to `CC(C)=N/N=C(\N)N[N+](=O)[O-]`, the inhibition is inactive: 1.17%.

As to `CN(C)C(=O)OCCc1n(C)cc[n+]1C`, the inhibition is inactive: -0.99%.

In the case of `CC1CCN(C(=O)Oc2c(Cl)cc(Cl)c3cccnc23)CC1`, the inhibition is inactive: 2.23%.

Turning to `COc1ccc(C2=NCC(CBr)S2)cc1` (stereo unspecified), the inhibition is inactive: -2.43%.

For `CC(=O)N1C2C3N(C(C)=O)C1C1N(C(C)=O)C(C(N1C(C)=O)N3C(C)=O)N2C(C)=O`, the inhibition is inactive: -2.53%.

For the molecule `O=[N+]([O-])c1cccc2n[nH]nc12`, the inhibition is inactive: -1.07%.

For the molecule `Cc1ccc(NP(=O)(Oc2ccccc2)Oc2ccccc2)nc1`, the inhibition was inactive: -6.97%.

Take `O=[N+]([O-])c1cc([N+](=O)[O-])c(CCNc2ccccc2)c([N+](=O)[O-])c1`: the inhibition was inactive: 1.96%.

Turning to `CCc1nc2c(n1)c1c(non1O)c1c2no[n+]1[O-]`, the inhibition was inactive: 2.43%.

In the case of `CC(C)(C)C(=O)NC(Sc1ccncn1)C(Cl)(Cl)Cl` (stereo unspecified), the inhibition is inactive: 2.4%.

Take `O=[N+]([O-])c1ncn(CCn2ncnc2[N+](=O)[O-])n1`: the inhibition was inactive: 2.39%.

For the molecule `O=[N+]([O-])c1cccc(NC2=NCC(CBr)S2)c1` (stereo unspecified), the inhibition was inactive: -1.26%.

`O=C(Nc1cc([As](=O)(O)O)ccc1O)c1ccccc1`: the inhibition was inactive: 3.91%.

Consider `CCOC(=O)Nc1cccc([As](=O)(O)O)c1`, for which the inhibition is inactive: 1.46%.

`Cc1cc(SC(NC=O)C(Cl)(Cl)Cl)ncn1` (stereo unspecified): the inhibition was inactive: -2.42%.

Turning to `O=P(Nc1ccccn1)(c1cccc2ccccc12)c1cccc2ccccc12`, the inhibition is inactive: 1.93%.

Turning to `CCOC(=O)Nc1ccc([As](=O)(O)O)c(O)c1`, the inhibition was inactive: -0.53%.

With `Cc1cc(SC(NC(=O)c2ccccc2)C(Cl)(Cl)Cl)nc(C(C)C)n1` (stereo unspecified), the inhibition is inactive: -0.93%.

Consider `CCOC(=O)c1ccc(NC(=O)C(C)(CCl)SC)cc1` (stereo unspecified), for which the inhibition was inactive: -4.67%.

Turning to `O=C(OC1CN2CCC1CC2)c1cccc([N+](=O)[O-])c1` (stereo unspecified), the inhibition was inactive: 0.92%.

For `CCC(C)N(CC(C)C)C(=S)SC(NC(C)=O)C(Cl)(Cl)Cl` (stereo unspecified), the inhibition was inactive: 8.24%.

For the molecule `COP1(=S)c2c(C)nn(CCC#N)c2N=C(c2ccc(F)cc2)N1C` (stereo unspecified), the inhibition is inactive: 5.13%.

For the molecule `O=C(COc1ccccc1)OC1CN2CCC1CC2` (stereo unspecified), the inhibition is inactive: 0.89%.

Turning to `O=C(Nc1ccncc1[N+](=O)[O-])c1ccc([N+](=O)[O-])cc1[N+](=O)[O-]`, the inhibition is inactive: 3.59%.

Regarding `COc1ccc(N/C(=N/P(=O)(N2CCOCC2)N2CCOCC2)N2CCOCC2)cc1`, the inhibition was inactive: 0.78%.

Turning to `O=C(OC1CN2CCC1CC2)C12CC3CC(CC(C3)C1)C2` (stereo unspecified), the inhibition was inactive: 1.84%.

Turning to `Cc1cc(=O)[nH]c(N[N+](=O)[O-])n1`, the inhibition is inactive: 2.35%.

On to `Cc1c2c(nc3ccccc13)SC(C(Cl)Cl)C2` (stereo unspecified), for which the inhibition was inactive: 2.04%.

In the case of `COc1ccc2nc(NP(=O)(c3ccccc3)c3ccccc3)sc2c1`, the inhibition was inactive: -2.42%.

As for `COc1cc(I)ccc1[As](=O)(O)O`, the inhibition is inactive: -0.6%.

As for `CC(C)c1ccc(OP(=O)(Nc2ccccn2)Oc2ccccc2F)cc1` (stereo unspecified), the inhibition was inactive: 4.3%.

Regarding `ClCCSc1nnc(-c2cccnc2)o1`, the inhibition was inactive: 10.6%.

Consider `CCN(CC)C(=S)SC(NC=O)C(Cl)(Cl)Cl` (stereo unspecified), for which the inhibition is inactive: 3.68%.

In the case of `CC(C)NC(=O)NP(=O)(Oc1ccccc1)Oc1ccccc1`, the inhibition was inactive: 5.26%.

Consider `O=[N+]([O-])c1cc([N+](=O)[O-])c(-c2ccn[nH]2)s1`, for which the inhibition was inactive: -1.46%.

`C[As](=O)(O)c1cccc(C(=O)O)c1`: the inhibition is inactive: -5.89%.

`O=[As](O)(c1ccc(O)cc1)c1ccccc1O`: the inhibition is inactive: -2.45%.

`Cc1ccc2nc3c(c(C)c2c1)CC(C(Cl)Cl)S3` (stereo unspecified): the inhibition is inactive: -3.99%.

As for `Cc1ccc(OP(=O)(Nc2ccc([N+](=O)[O-])cn2)Oc2ccc(C)cc2)cc1`, the inhibition was inactive: -1.54%.

Turning to `NC(=O)Nc1ccc([As](=O)(O)O)cc1`, the inhibition was inactive: 1.01%.

Consider `CN(C)C(=O)c1cc([N+](=O)[O-])cc2c1-c1c(cc([N+](=O)[O-])cc1[N+](=O)[O-])C2=O`, for which the inhibition was inactive: 8%.

For the molecule `O=[N+]([O-])c1ccc2c(c1)nnn2O`, the inhibition was inactive: 1.31%.

On to `CN(C(=O)Cc1ccc(Cl)c(Cl)c1)[C@H]1CC[C@@]2(CCCO2)C[C@@H]1N1CCCC1`, for which the inhibition is inactive: 4.29%.
